## Measured affinities in a library of Ab-14 heavy chain variants

From the AlphaSeq antibody data of Li et al. 2023 (doi:10.1038/s41467-023-39022-2), copy in the FLAb collection.

Binding partner: SARS-CoV-2 spike HR2 peptide, sequence PDVDLGDISGINAS.

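Phage display of a naive human antibody library on the peptide gave the parent. These sequences belong to a second round, designed from the earlier measurements on random variants of the parent. Several design methods are mixed in this list. The assay is AlphaSeq: two haploid yeast populations carry antibody and antigen on their surface. Binding brings cells together so that they mate, and sequencing counts the barcode pairs among the diploids. The ratio of observed to expected reads was calibrated, replicate by replicate, on BCL2-family standards whose Kd was known from biolayer interferometry. There are six technical replicates.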

Parent: Ab-14, a human scFv built as VH, a (GGGGS)3 linker, VL. Only the CDRs of the heavy chain vary.
VH: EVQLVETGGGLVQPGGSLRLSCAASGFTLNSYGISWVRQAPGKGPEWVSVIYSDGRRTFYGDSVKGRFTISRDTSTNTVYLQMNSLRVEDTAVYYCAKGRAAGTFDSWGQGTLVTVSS
VL: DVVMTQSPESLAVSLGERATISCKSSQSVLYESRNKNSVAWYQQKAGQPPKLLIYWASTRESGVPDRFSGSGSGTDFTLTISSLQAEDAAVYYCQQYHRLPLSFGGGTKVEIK

Each variant is given by its three heavy chain CDRs, as the data file delimits them; those of the parent are GFTLNSYGIS, VIYSDGRRTFYGDSVK, GRAAGTFDS.
Variants here have at most six changes.
Numbers give log10(Kd / nM), so 0 is 1 nM and 3 is 1 µM. Smaller is tighter.
A pair that was not seen in that replicate is written "nd"; this usually means weak binding, but a binder can also be missed.
In the paper, a design with two or fewer of six values counts as a poor binder.

* GFSLNSYGIS / VIYSDGKRTFYGDNVK / GQAAGTFDL = 0.42, 0.91, 2.02, 0.41, nd, 2.30 (controls 0 of 18)
* GFTLNDYGIS / VIYSDGRRTFYGDSVK / GRAAGTFDL = 1.34, 2.34, 1.22, 1.16, 0.80, 1.35; 0.43, 1.38, 1.11, 0.28, 1.26, 0.24 (controls 2 of 36)
* GFTLNSYGIS / VIYSDGRRTFYLHSVK / GRAAGTFDS = nd, nd, nd, nd, nd, nd (controls 0 of 18)
* GFTLNSYGIS / VIYSDGRRTFYKDSVK / GRAKGTFDS = nd, nd, nd, nd, nd, nd (controls 0 of 18)
* GFTLNSYGIS / VIYSDGKRTFYSDSVK / GKTAGTFDV = 0.44, 0.21, 0.19, 0.39, 0.17, 0.21 (controls 2 of 18)
* GFSLNSYGIS / VIYSCGRRTFYGDSVK / GRAAGTFDS = nd, nd, nd, nd, nd, nd (controls 0 of 18)
* GFTLNSYGIS / VIYFDGRRTQYGDSVS / GRAAGTFDS = nd, nd, nd, nd, nd, nd (controls 0 of 18)
* GFTLNSYGIS / VIYSDGRRTFYEDSVK / GDFAGTFDS = nd, nd, nd, nd, nd, nd (controls 0 of 18)
* GFDLNEYGIS / VIYADGRRTFYSDSVK / GGNAGTFDS = -0.54, -0.66, -0.25, -0.81, -0.89, -0.35 (controls 0 of 18)
* GFNLNEHGIS / VIYSDGRRTFYADSVK / GRAAGTFVS = nd, nd, nd, nd, nd, nd (controls 0 of 18)
* GFDLNSYGIS / VIYSDGRRTFYADSVK / GVAAGTFDS = 0.62, 1.13, 0.01, 0.35, 0.05, 1.07 (controls 0 of 18)
* GFTLNSYGIQ / VIYSDGRRTFYGDSVK / GRGAGTFDS = nd, nd, nd, nd, nd, nd (controls 0 of 18)
* GFSLNSYGIS / VIYSDGRRTFYGDNVK / GRTAGTFDS = nd, nd, nd, nd, 2.01, 1.01 (controls 0 of 18)
* GFQLNEYGIS / VIYSDGRRTFYGDSVK / GHAAGTFDK = 0.29, 0.11, 0.06, 0.04, 0.33, 0.51 (controls 0 of 18)
* GFHLNEYGIS / VIYSDGRRTFYGDSVK / GEAAGTFDS = 0.98, 0.35, 1.20, 0.27, 0.86, 0.54 (controls 1 of 18)
* GFDLNEYGIS / VIYSDGRRTFYADSVK / GRAAGTFDK = -0.34, -0.78, -0.52, -0.67, -0.50, -0.79 (controls 0 of 18)
* QFTLNSYGIS / VIYSDGRRTFYDDSVK / GRAAGTFDS = nd, nd, nd, nd, nd, 2.17 (controls 1 of 18)
* GTTLADYGIS / VIYSDGRRTFYGDSVK / GRAAGTFDC = nd, nd, nd, nd, nd, nd (controls 0 of 18)
* GFHLNEYGIS / VIYSDGRRTFYGDSVK / GRTAGTFDS = -0.14, -0.64, -0.35, 0.05, -0.08, 0.13 (controls 0 of 18)
* GFTLNEYGIS / VIYSDGRRTFYTDSVK / GREAGTFDT = 1.07, 0.90, 0.38, -0.22, 0.25, 1.26 (controls 0 of 18)
* GFTLNSYGIS / VIYSDGRHTFYGDSVK / GRAAGTFDP = nd, nd, nd, nd, nd, nd (controls 0 of 18)
* GFWLNEYGIS / VIYSDGRRTQYIDSVK / GRAAGTFDS = 0.92, 0.52, 1.19, 0.57, 1.09, 1.33 (controls 1 of 18)
* MFDLNSYGIS / VIYSDGRRTAYGDSVK / GRAAGTFDS = 0.99, 0.75, 0.79, 0.81, 0.93, 0.78 (controls 0 of 18)
* GFTLNSYGIS / VIYSDGQRTFYSDSVK / GRSAGTFDS = 0.98, 1.11, 0.84, 1.09, 0.80, 0.82 (controls 1 of 18)
* GFTLNEYGIS / VIYSDGRRTFYGDSVK / GRYAVTFDI = nd, nd, nd, nd, nd, nd (controls 0 of 18)
* GFTLNDYGIS / VIYSDGRRTFYGDSVK / GRNAGQFDS = nd, nd, 3.20, nd, nd, nd (controls 0 of 18)
* GFELNSYGIS / VIYSDGRRTFYTDSVK / GRQAGTFDS = 0.44, 0.61, nd, 1.36, 0.10, 1.49 (controls 0 of 18)
* GFTLNSYGIS / VIYADGRRTFYGDDVK / GKAAGTFDS = 0.60, 0.41, 0.33, 0.42, 0.28, 0.42 (controls 0 of 18)
* GFSLNEYGIS / VIYSDGRRTFYSDSVK / GRLAGTFDS = nd, nd, nd, nd, nd, nd (controls 0 of 18)
* GETLNSYGIS / VIYSDGRRTHYGDSVK / GFEAGTFDS = nd, 2.09, 2.09, nd, nd, nd (controls 0 of 18)
* GFTLNSYGIS / VIYSDGQRTFYGDSVK / GRYAGTFDS = nd, nd, nd, nd, nd, nd (controls 0 of 18)
* GFSLNEYGIS / VIYSDGRRTFYGDHVK / GRTAGTFDN = 1.31, 0.28, -0.13, 0.30, -0.33, 0.69 (controls 0 of 18)
* GFTLNDYGIS / VIYSDGRRTWYDDSVK / GRAAGTFDS = 0.32, 0.24, 1.00, -0.13, 1.53, 1.22 (controls 0 of 18)
* GFSLNSYGIS / VIYSDGRRTFYADSVK / GRTAGTFDK = 0.41, 0.35, 0.14, 0.33, 0.87, 0.34 (controls 0 of 18)
* GFTLNSYGIS / VIYSDGRRTFYGDSVK / GRWAGTFKR = 0.64, -0.61, 0.49, 0.19, -0.13, 0.99 (controls 0 of 18)
* GFTLNSYGIS / VIYADGRRTFYGDSVK / GRAAGTFDW = nd, 1.42, nd, nd, nd, 2.09 (controls 0 of 18)
* GFQLNEYGIS / VIYSDGRRTFYGDQVK / GEAAGTFDS = nd, nd, nd, 0.31, nd, 0.64 (controls 0 of 18)
* SFDLNSYGIS / VIYSDGRRTFYGDSVK / GKTAGTFDS = 0.47, -0.15, 0.63, 0.37, 0.41, 0.40 (controls 0 of 18)

Extract of 4 entries:

CDR-H1	CDR-H2	CDR-H3	log10 Kd (nM) by replicate	signal with controls
GFTLNSYGIS	VIYSDGQRTFYGDSVK	GRYAGTFDS	nd, nd, nd, nd, nd, nd	0 of 18
MFDLNSYGIS	VIYSDGRRTAYGDSVK	GRAAGTFDS	0.99, 0.75, 0.79, 0.81, 0.93, 0.78	0 of 18
GFTLNSYGIS	VIYSDGRRTFYLHSVK	GRAAGTFDS	nd, nd, nd, nd, nd, nd	0 of 18
GFHLNEYGIS	VIYSDGRRTFYGDSVK	GRTAGTFDS	-0.14, -0.64, -0.35, 0.05, -0.08, 0.13	0 of 18

Values of this round are not directly comparable with the first-round values of the same sequences.
Some sequences occur more than once in the pool; their replicates are listed entry by entry, parted by semicolons.
The parent sequence was in this pool as ten entries: three were never detected, three once, and four in most replicates, with averages from 0.34 to 2.37.
Nonspecific signal, from three strains lacking the peptide, appeared in 1% of pairings of all heavy chain designs, centred on 2.08 (5% of these signals below 0.84); values are not corrected for it. The control count says in how many pairings with the empty strains this scFv gave a signal.